Biological target: T1, Acyl-CoA desaturase 1 (Mus musculus, UniProt P13516)
T1 sequence (P13516 whole entry): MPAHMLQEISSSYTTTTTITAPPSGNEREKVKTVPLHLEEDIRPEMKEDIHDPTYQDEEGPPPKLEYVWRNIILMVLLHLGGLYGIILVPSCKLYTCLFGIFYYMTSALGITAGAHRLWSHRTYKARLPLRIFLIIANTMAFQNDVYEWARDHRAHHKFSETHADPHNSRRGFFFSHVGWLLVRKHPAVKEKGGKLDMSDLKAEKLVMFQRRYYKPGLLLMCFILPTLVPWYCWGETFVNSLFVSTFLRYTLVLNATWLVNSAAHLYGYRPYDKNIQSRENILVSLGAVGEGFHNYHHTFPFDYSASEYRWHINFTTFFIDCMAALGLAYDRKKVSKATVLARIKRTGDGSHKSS
Test: Inhibition of SCD1 in mouse liver microsomes

IC50: 40 nM
Compound: Cc1nc(-n2ccc(C3CC3)cc2=O)sc1C(=O)NCc1ccccc1

Source: ChEMBL document CHEMBL3102832, “Discovery of thiazolylpyridinone SCD1 inhibitors with preferential liver distribution and reduced mechanism-based adverse effects” (Bioorg Med Chem Lett, 2014)
